# BindingDB's records for doi:10.1021/jm070566z (Sapienza University of Rome, 2008)
# Amino acid sequences for entries named in this document (tags omitted).
# UniProt P21554, whole entry: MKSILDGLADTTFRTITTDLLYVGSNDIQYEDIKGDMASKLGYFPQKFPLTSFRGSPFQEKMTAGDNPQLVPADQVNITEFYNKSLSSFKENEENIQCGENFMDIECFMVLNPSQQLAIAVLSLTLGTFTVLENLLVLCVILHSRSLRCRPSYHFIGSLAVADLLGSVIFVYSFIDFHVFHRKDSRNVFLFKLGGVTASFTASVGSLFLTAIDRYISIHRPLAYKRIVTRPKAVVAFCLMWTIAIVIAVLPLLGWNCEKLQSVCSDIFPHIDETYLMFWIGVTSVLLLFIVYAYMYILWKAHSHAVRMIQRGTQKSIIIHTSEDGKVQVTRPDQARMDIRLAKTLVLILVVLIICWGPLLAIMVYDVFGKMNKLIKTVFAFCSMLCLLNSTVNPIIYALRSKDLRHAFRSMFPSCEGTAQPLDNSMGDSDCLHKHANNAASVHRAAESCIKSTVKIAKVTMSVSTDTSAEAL
# Molecular target: Cannabinoid receptor 1 (Homo sapiens, UniProt P21554)
smiles,measurement,value
"Cc1ccc(Cn2nc(C(=O)NC3C(C)(C)C4CC[C@@]3(C)C4)cc2-c2ccc(Cl)c(C)c2)cc1 (stereo partly specified) [N-(1,3,3-trimethylbicyclo(2.2.1)heptan-2-yl)-5-(4-chloro-3-methylphenyl)-1-(4-methylbenzyl)pyrazole-3-carboxamide]",Ki,> 2.82 µM
